Values of other authors, collected in US9757461B2, “GnRH analogue formulations” (CAMURUS AB, priority 2005, dated 2017).

Conditions: native GLP-1

## GLP-1
  Plasma half-life: below 2 minutes
